# Patent EP1018008B1
# The chains behind the UniProt entries cited, without tags or fusion partners.
# UniProt P41143, whole entry: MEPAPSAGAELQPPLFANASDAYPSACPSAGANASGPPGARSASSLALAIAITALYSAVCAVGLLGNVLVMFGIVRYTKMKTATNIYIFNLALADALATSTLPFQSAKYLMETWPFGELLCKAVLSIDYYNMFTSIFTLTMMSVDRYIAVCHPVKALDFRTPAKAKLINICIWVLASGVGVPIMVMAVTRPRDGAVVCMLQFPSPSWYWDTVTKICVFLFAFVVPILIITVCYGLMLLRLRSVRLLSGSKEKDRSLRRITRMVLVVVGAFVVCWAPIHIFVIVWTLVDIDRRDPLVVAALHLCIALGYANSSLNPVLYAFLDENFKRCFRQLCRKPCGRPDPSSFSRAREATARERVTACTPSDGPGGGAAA
# Target: human delta receptor (Homo sapiens, UniProt P41143)
# Assay: human delta receptor binding assay (affinity)
# Conditions: comparison of human delta and mu affinities
smiles,measurement,value
COc1ccc(Oc2ccc([N+](=O)[O-])cc2C(=O)N2CCC(n3c(=O)[nH]c4ccccc43)CC2)cc1,activity on the delta receptor relative to the mu receptor,more active on the delta receptor than on the mu receptor
